Source: PubChem BioAssay AID1948 (National Center for Advancing Translational Sciences (NCATS), 2009)
Only a part is listed here, and it is no random draw. Calls of active or inactive are those of the source. The call rests on the fitted dose curve; in most records, active means well fitted activation curve with a large enough effect; inconclusive means small, poorly fitted or top-dose-only effect; inactive means no such curve, though single readings can be large or run the other way.

Experiment: qHTS Assay for Compounds that Induce Erasure of Genomic Imprints;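 further: 0% = negative control wells on the plate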
Details: mouse ES Peg3-LacZ reporter, beta-gal luminescence, 40 h; at 10.9 µM unless noted

Compound | activity change, positive = activation
CCC(CO)(C(=O)OC1CN2CCC1CC2)c1ccccc1 (configuration not stated) | inactive: -5.34% [at 60.7 µM]
COc1cc(C(=O)NCC2(N3CCOCC3)CCCCC2)cc(OC)c1OC | inactive: -4.24%
CCOc1ncccc1C(=O)NCC1(N2CCOCC2)CCCCC1 | inactive: -14.6% [at 60.7 µM]
O=C(O)C1(Nc2ccccc2)CCN(Cc2ccccc2)CC1 | inactive: 5.77%
CC(C)(C)c1ccc(C(=O)NCC2(N3CCOCC3)CCCCC2)cc1 | inactive: -19.6%
Cc1ccccc1C(=O)NCC1(N(C)C)CCCCC1 | inactive: -6.39%
CN(C)C1(CNC(=O)c2ccc(C(C)(C)C)cc2)CCCCC1 | inactive: -13.1%
O=C(NCC1(N2CCOCC2)CCCCC1)c1ccccc1 | inactive: 9.25%
ClCCOP(OCCCl)OCCCl | inactive: -0.416% [at 60.7 µM]
O=C(NCC1(N2CCOCC2)CCCCC1)c1ccc([N+](=O)[O-])cc1 | inactive: 13.9%
O=C(NCC1(N2CCOCC2)CCCCC1)c1ccccc1[N+](=O)[O-] | inactive: -6.28%
N/C(=N\O)c1c(N)no[n+]1[O-] | inactive: -3.72% [at 60.7 µM]
NC1CCCCC1.NP(=O)(O)N(CCCl)CCCl | inactive: -0.403%
CCCCOc1ccccc1C(=O)NCC1(N2CCOCC2)CCCCC1 | inactive: -13%
O=C(NCC1(N2CCOCC2)CCCCC1)c1ccccc1Br | inactive: -13.8%
CCOP(=O)(Cl)Cl | inactive: -3.61% [at 60.7 µM]
CCCOc1cccc(C(=O)NCC2(N3CCOCC3)CCCCC2)c1 | inactive: -17.1%
CCOc1ccc(C(=O)NCC2(N3CCOCC3)CCCCC2)cc1 | inactive: -17.2%
N#CC1(Nc2ccccc2)CCN(CCc2ccccc2)CC1 | inactive: -7.42% [at 60.7 µM]
O=C(NCC1(N2CCOCC2)CCCCC1)c1ccc(Cl)cc1 | inactive: -2.64%
COc1ccccc1C(=O)NCC1(N2CCOCC2)CCCCC1 | inactive: -7.66%
O=C(OC1CN2CCC1CC2)C1c2ccccc2Oc2ccccc21 (configuration not stated) | inactive: 0.213% [at 60.7 µM]
